Source: US8013153B2, “Substituted pyrimidine kinase inhibitors” (Janssen Pharmaceutica, N.V., priority 2006, dated 2011)

Experiments:
C-Raf = C-Raf (Homo sapiens, UniProt P04049); test: RAF Kinase Screening Assay (C-Raf); settings: Compound 50 tested at 30 μM
[1] = tested on: HeLa cervical adenocarcinoma; test: Inhibition of in vitro cell proliferation (HeLa); assay type: cell-based; settings: Homo sapiens, 14C-thymidine incorporation;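 note: cells exposed to compound for 24 h, then labelled 24 h with methyl 14C-thymidine, with uptake into DNA counted by scintillation against DMSO-only control wells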
Procedure: (§1) The ability of a test compound to inhibit the proliferation of cell growth was determined by measuring incorporation of ^14C-labelled thymidine into newly synthesized DNA within the cells. This method was used on American Type Culture Collection (ATCC, Virginia) cell lines derived from carcinomas originating from several tissues such as HeLa cervical adenocarcinoma (ATCC Cat. #CCL-2), A375 malignant melanoma (ATCC Cat. #CRL-1619), HCT-116 colon carcinoma (ATCC Cat. #CCL-247). The A431 cell line for epidermoid carcinoma was grown in DMEM containing L-glutamine, sodium pyruvate, 1 g/L glucose+10% FBS.
(§2) The carcinoma cells are trypsinized and counted. The cells (3000-8000 count) are added to each well of a 96-well CytoStar tissue culture treated scintillating microplate (Amersham #RPNQ0160) in complete medium (100 μL) and the plate is then incubated in complete medium for 24 hrs at 37° C. in an inert atmosphere containing 5% CO2.
(§3) Test compound (1 μL) in 100% DMSO is added to the plate test-wells with DMSO only added to control-wells. The plate is incubated in complete medium for a second 24 hr period at 37° C. in an atmosphere containing 5% CO2.
(§4) An aliquot of a solution of Methyl ^14C-thymidine (56 mC/mmol) (NEN #NEC568 or Amersham #CFA532) in complete medium (20 uL to provide 0.2 μCi/well) is then added to each well and the plate is incubated for a third 24 hr period at 37° C. in an atmosphere containing 5% CO2.
(§5) The plate contents are then discarded, the plate is washed twice with PBS (200 μL) and then PBS (200 μL) is added to each well. The plate is sealed and the degree of methyl ^14C-thymidine incorporation is quantified on a Packard Top Count.
(§6) Cell culture reagents were obtained from Invitrogen (Carlsbad, Calif.) supplemental fetal calf serum was purchased from Hyclone, Logan Utah. Cells were maintained at 37 C plus 5% CO2, and grown as monolayers prior to tumor implantation.

HCT-116 colon carcinoma = test: Inhibition of in vitro cell proliferation (HCT116); assay type: cell-based; settings: Homo sapiens, HCT-116, 14C-thymidine incorporation;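 note: cells exposed to compound for 24 h, then 14C-thymidine added for a further 24 h and its uptake into DNA counted by scintillation, DMSO-only wells as control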
Procedure: as §1, §2, §3, §4, §5, §6

A375 malignant melanoma = test: Inhibition of in vitro cell proliferation (A375); assay type: cell-based; settings: Homo sapiens, A-375, 14C-thymidine incorporation;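 note: cells plated for 24 h, given compound for 24 h, then labelled with 14C-thymidine for another 24 h, with DMSO-only wells as control and counts read by scintillation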
Procedure: as §1, §2, §3, §4, §5, §6

Row | Structure (SMILES) | activity against C-Raf (C-Raf) | IC50 [1] | IC50 (HCT-116 colon carcinoma) | IC50 (A375 malignant melanoma)
1 | CNC(=O)c1cc(Oc2ccc(NC(=O)Nc3ccc(Cl)c(C(F)(F)F)c3)cc2)ccn1 [BAY 43-9006, reference compound] | Inhibition |  |  | 
2 | Cc1cc2c(F)c(Oc3ncnc(N)c3C=NOCCN3CCOCC3)ccc2[nH]1 [Cpd 14, 4-amino-6-(4-fluoro-2-methyl-1H-indol-5-yloxy)-pyrimidine-5-carbaldehyde O-(2-morpholin-4-yl-ethyl)-oxime] |  | 0.699 µM | 1.16 µM | 0.339 µM

Second part, the compound after the results:

Row | activity against C-Raf (C-Raf) | IC50 [1] | IC50 (HCT-116 colon carcinoma) | IC50 (A375 malignant melanoma) | Structure (SMILES)
3 |  | 3.23 µM | 4.25 µM | 0.501 µM | Cc1cc2c(F)c(Oc3ncnc(N)c3C=NOCCN(C)C)ccc2[nH]1 [Cpd 15, 4-amino-6-(4-fluoro-2-methyl-1H-indol-5-yloxy)-pyrimidine-5-carbaldehyde O-(2-dimethylamino-ethyl)-oxime]
4 |  | 4.33 µM | 4.29 µM | 1.6 µM | Cc1cc2c(F)c(Oc3ncnc(N)c3C=NOCCCN(C)C)ccc2[nH]1 [Cpd 17, 4-amino-6-(4-fluoro-2-methyl-1H-indol-5-yloxy)-pyrimidine-5-carbaldehyde O-(3-dimethylamino-propyl)-oxime]
5 |  | 0.028 µM | 0.028 µM |  | C#CCON=Cc1c(N)ncnc1Oc1ccc2[nH]c(C)cc2c1F [Cpd 30, 4-amino-6-(4-fluoro-2-methyl-1H-indol-5-yloxy)-pyrimidine-5-carbaldehyde O-prop-2-ynyl-oxime]
